Patent publication US20160022760A1, “METHODS OF TREATING CELIAC DISEASE WITH LARAZOTIDE” (priority 2014, published 2016)
Where no end group is shown, it is not given here.

Key:
[1] = test system: subjects with celiac disease; test: Phase IIb study: twelve-lead electrocardiograms; format: in vivo, human
Description: Twelve-lead ECGs were obtained at screening and at Visit 6 or early termination (Table 2).
For continuous variables, changes from baseline to each time point were summarized with the number of nonmissing values, mean, standard deviation, median, and minimum and maximum values. For categorical variables, subject counts and percentages were provided. Results of ECGs were classified as normal; abnormal, not clinically significant, and abnormal, clinically significant, as specified on the ECG page of the eCRF. Summaries were presented by treatment group.

[2] = test system: subjects with celiac disease; details: in vivo
[3] = test system: subjects with celiac disease; test: Phase IIb study: clinical laboratory values (hematology, chemistry)
[4] = 0.5 mg TID, N = 85, treatment period, Safety Population
[5] = 0.5 mg TID, end of treatment, Safety Population
[6] = 1 mg TID, N = 84, treatment period, Safety Population

GGVLVQPG (SEQ ID NO:1) [Larazotide acetate]
Subjects with clinically significant abnormal ECG finding ([1]; 2 mg group, Study Day 93, placebo run-out phase, possibly due to hypertension): One subject
ECGs at screening and end of treatment, in words ([1]; all treatment groups): None of the ECGs performed at screening and the end of treatment were considered clinically significant
Deaths in the study, in words [2]: No subjects died
Incidence of constipation (treatment-emergent) [2]: 5.9%
Incidence of gastro-oesophageal reflux disease (treatment-emergent) [2]: 3.5%
Incidence of gastrointestinal disorders (treatment-emergent) [2]: 29.3%
Incidence of headache (treatment-emergent) [2]: 5.1%
Incidence of infections and infestations (treatment-emergent) [2]: 25.0%
Incidence of nausea (treatment-emergent) [2]: 7.0%
Incidence of serious adverse events [2]: 0.8%
Incidence of severe treatment-emergent adverse events [2]: 4.3%
Incidence of treatment-emergent adverse events leading to withdrawal from the study [2]: 4.7%
Incidence of upper respiratory tract infection (treatment-emergent) [2]: 2.3%
Incidence of vomiting (treatment-emergent) [2]: 2.7%
Number of subjects with treatment-emergent serious adverse events [2]: 2 subjects
Relationship of treatment-emergent serious adverse events to study drug, in words [2]: none was considered by the Investigator to be related to study drug
TEAE that led to withdrawal: Serious [2]: No
Tolerability and safety profile, in words [2]: well tolerated
PCS abnormal ALT (≧3 × ULN), subjects n [3, 4]: 0
PCS abnormal AST (≧3 × ULN), subjects % [3, 4]: (1.2) %
PCS abnormal AST (≧3 × ULN), subjects n [3, 4]: 1
PCS abnormal Alkaline phosphatase (≧3 × ULN), subjects % [3, 4]: (1.2) %
PCS abnormal Alkaline phosphatase (≧3 × ULN), subjects n [3, 4]: 1
PCS abnormal Ferritin serum (≦0.75 × LLN), subjects % [3, 4]: (15.3) %
PCS abnormal Ferritin serum (≦0.75 × LLN), subjects n [3, 4]: 13
PCS abnormal Glucose random (≦0.75 × LLN), subjects n [3, 4]: 0
PCS abnormal Hematocrit (≦0.75 × LLN), subjects n [3, 4]: 0
PCS abnormal Hemoglobin (≦0.75 × LLN), subjects n [3, 4]: 0
PCS abnormal Lymphocytes (≦0.75 × LLN or ≧1.5 × ULN), subjects % [3, 4]: (1.2) %
PCS abnormal Lymphocytes (≦0.75 × LLN or ≧1.5 × ULN), subjects n [3, 4]: 1
PCS abnormal Neutrophils (≦0.75 × LLN or ≧1.5 × ULN), subjects % [3, 4]: (2.4) %
PCS abnormal Neutrophils (≦0.75 × LLN or ≧1.5 × ULN), subjects n [3, 4]: 2
PCS abnormal White blood cells (≦0.75 × LLN or ≧1.5 × ULN), subjects n [3, 4]: 0
Subjects with at least 1 PCS abnormal test, % [3, 4]: (17.6) %
ALT, Mean Change From Baseline to End of Treatment ([3]; 0.5 mg TID, Safety Population): −0.8 IU/L
AST, Mean Change From Baseline to End of Treatment ([3]; 0.5 mg TID, Safety Population): −1.5 IU/L
Albumin, Mean Change From Baseline to End of Treatment ([3]; 0.5 mg TID, Safety Population): 0.0 g/dL
Alkaline phosphatase, Mean Change From Baseline to End of Treatment ([3]; 0.5 mg TID, Safety Population): −3.0 IU/L
BUN, Mean Change From Baseline to End of Treatment ([3]; 0.5 mg TID, Safety Population): 0.2 mg/dL
Basophils, Mean Change From Baseline to End of Treatment ([3]; 0.5 mg TID, Safety Population): 0.1%
Calcium, Mean Change From Baseline to End of Treatment ([3]; 0.5 mg TID, Safety Population): -0.1 mg/dL
Chloride, Mean Change From Baseline to End of Treatment ([3]; 0.5 mg TID, Safety Population): -0.1 mmol/L
Creatinine, Mean Change From Baseline to End of Treatment ([3]; 0.5 mg TID, Safety Population): -0.0 mg/dL
Eosinophils, Mean Change From Baseline to End of Treatment ([3]; 0.5 mg TID, Safety Population): −0.1%
Glucose (random), Mean Change From Baseline to End of Treatment ([3]; 0.5 mg TID, Safety Population): 2.4 mg/dL
Hematocrit, Mean Change From Baseline to End of Treatment ([3]; 0.5 mg TID, Safety Population): 0.1%
Hemoglobin, Mean Change From Baseline to End of Treatment ([3]; 0.5 mg TID, Safety Population): 0 g/dL
Lymphocytes, Mean Change From Baseline to End of Treatment ([3]; 0.5 mg TID, Safety Population): −0.2%
Monocytes, Mean Change From Baseline to End of Treatment ([3]; 0.5 mg TID, Safety Population): −0.1%
Neutrophils, Mean Change From Baseline to End of Treatment ([3]; 0.5 mg TID, Safety Population): 0.3%
Platelet count, Mean Change From Baseline to End of Treatment ([3]; 0.5 mg TID, Safety Population): 2.2 K/μL
Potassium, Mean Change From Baseline to End of Treatment ([3]; 0.5 mg TID, Safety Population): -0.1 mmol/L
Sodium, Mean Change From Baseline to End of Treatment ([3]; 0.5 mg TID, Safety Population): -0.1 mmol/L
Total bilirubin, Mean Change From Baseline to End of Treatment ([3]; 0.5 mg TID, Safety Population): -0.0 mg/dL
White blood cells, Mean Change From Baseline to End of Treatment ([3]; 0.5 mg TID, Safety Population): 0.1 K/μL
ALT, Mean Value [3, 5]: 22.7 IU/L
AST, Mean Value [3, 5]: 23.7 IU/L
Albumin, Mean Value [3, 5]: 4.1 g/dL
Alkaline phosphatase, Mean Value [3, 5]: 63.1 IU/L
BUN, Mean Value [3, 5]: 12.1 mg/dL
Basophils, Mean Value [3, 5]: 0.4%
Calcium, Mean Value [3, 5]: 9.4 mg/dL
Chloride, Mean Value [3, 5]: 104.7 mmol/L
Creatinine, Mean Value [3, 5]: 0.8 mg/dL
Eosinophils, Mean Value [3, 5]: 2.7%
Glucose (random), Mean Value [3, 5]: 93.2 mg/dL
Hematocrit, Mean Value [3, 5]: 40%
Hemoglobin, Mean Value [3, 5]: 13.4 g/dL
Lymphocytes, Mean Value [3, 5]: 29.2%
Monocytes, Mean Value [3, 5]: 6.9%
Neutrophils, Mean Value [3, 5]: 61%
Platelet count, Mean Value [3, 5]: 244 K/μL
Potassium, Mean Value [3, 5]: 4.1 mmol/L
Sodium, Mean Value [3, 5]: 138.3 mmol/L
Total bilirubin, Mean Value [3, 5]: 0.6 mg/dL
White blood cells, Mean Value [3, 5]: 5.9 K/μL
Proportion of subjects who developed potentially clinically significant abnormal laboratory values during the treatment period ([3]; 1 mg TID): 22.6%
PCS abnormal ALT (≧3 × ULN), subjects n [3, 6]: 0
PCS abnormal AST (≧3 × ULN), subjects n [3, 6]: 0
PCS abnormal Alkaline phosphatase (≧3 × ULN), subjects n [3, 6]: 0
PCS abnormal Ferritin serum (≦0.75 × LLN), subjects % [3, 6]: (14.3) %
PCS abnormal Ferritin serum (≦0.75 × LLN), subjects n [3, 6]: 12
PCS abnormal Glucose random (≦0.75 × LLN), subjects n [3, 6]: 0
PCS abnormal Hematocrit (≦0.75 × LLN), subjects n [3, 6]: 0
PCS abnormal Hemoglobin (≦0.75 × LLN), subjects n [3, 6]: 0
PCS abnormal Lymphocytes (≦0.75 × LLN or ≧1.5 × ULN), subjects % [3, 6]: (6.0) %
PCS abnormal Lymphocytes (≦0.75 × LLN or ≧1.5 × ULN), subjects n [3, 6]: 5
PCS abnormal Neutrophils (≦0.75 × LLN or ≧1.5 × ULN), subjects % [3, 6]: (2.4) %
PCS abnormal Neutrophils (≦0.75 × LLN or ≧1.5 × ULN), subjects n [3, 6]: 2
PCS abnormal White blood cells (≦0.75 × LLN or ≧1.5 × ULN), subjects n [3, 6]: 0
Subjects with at least 1 PCS abnormal test, % [3, 6]: (22.6) %
ALT, Mean Change From Baseline to End of Treatment ([3]; 1 mg TID, Safety Population): 0.8 IU/L
AST, Mean Change From Baseline to End of Treatment ([3]; 1 mg TID, Safety Population): −0.5 IU/L
Albumin, Mean Change From Baseline to End of Treatment ([3]; 1 mg TID, Safety Population): 0.0 g/dL
Alkaline phosphatase, Mean Change From Baseline to End of Treatment ([3]; 1 mg TID, Safety Population): 2.5 IU/L
BUN, Mean Change From Baseline to End of Treatment ([3]; 1 mg TID, Safety Population): 0.3 mg/dL
Basophils, Mean Change From Baseline to End of Treatment ([3]; 1 mg TID, Safety Population): −0.1%
